Assays:
Conditions in all cases: strain Wistar
Aorta [1] = experiment: Vasodilatory activity in Wistar rat endothelium-denuded cross tolerant thoracic aortic ring assessed as inhibition of phenylephrine-induced contraction preincubated with 0.55 mM GTN for 1 hr followed by washing
Aorta [2] = experiment: Vasodilatory activity in Wistar rat endothelium-denuded thoracic aortic ring assessed as inhibition of phenylephrine-induced contraction
Aorta [3] = experiment: Vasodilatory activity in Wistar rat endothelium-denuded thoracic aortic ring assessed as inhibition of phenylephrine-induced contraction drug treated 30 mins after ALDH2 inhibitor benomyl treatment
Aorta [4] = experiment: Vasodilatory activity in Wistar rat endothelium-denuded thoracic aortic ring assessed as inhibition of phenylephrine-induced contraction drug treated 30 mins after 1 uM soluble guanylate cyclase heme site inhibitor ODQ treatment
Aorta [5] = experiment: Vasodilatory activity in Wistar rat endothelium-denuded thoracic aortic ring assessed as inhibition of phenylephrine-induced contraction drug treated 30 mins after ALDH2 inhibitor chloral hydrate treatment

| Structure (SMILES) | EC50 (Aorta [1]) | EC50 (Aorta [2]) | EC50 (Aorta [3]) | EC50 (Aorta [4]) | EC50 (Aorta [5]) |
| --- | --- | --- | --- | --- | --- |
| O=[N+]([O-])OC[C@@H](O[N+](=O)[O-])[C@@H](O[N+](=O)[O-])c1ccccc1 | 780 nM | 290 nM | 360 nM | 21000 nM | – |
| O=[N+]([O-])OC[C@H](O[N+](=O)[O-])[C@H](O[N+](=O)[O-])c1ccccc1 | 610 nM | 210 nM | 320 nM | 18000 nM | – |
| O=[N+]([O-])OC[C@@H](O[N+](=O)[O-])[C@H](O[N+](=O)[O-])c1ccccc1 | 650 nM | 220 nM | 350 nM | 22000 nM | 270 nM |
| O=[N+]([O-])OC[C@H](O[N+](=O)[O-])[C@@H](O[N+](=O)[O-])c1ccccc1 | 1000 nM | 280 nM | 320 nM | 30000 nM | 210 nM |
